Values quoted from earlier work in US20040077540A1, “Compositions and methods for modulating physiology of epithelial junctional adhesion molecules for enhanced mucosal delivery of therapeutic compounds” (Nastech Pharmaceutical Company Inc., priority 2002, published 2004).
Read-outs that look alike come from different tables or passages of the source.

Tests used:
[1] = 12 MIU (60 μg) dose, Munafo et al. 1998, cited from earlier work
[2] = tested on: neopterin; conditions: 12 MIU (60 μg) dose, Munafo et al. 1998, cited from earlier work
[3] = tested on: β2-microglobulin; conditions: 12 MIU (60 μg) dose, Munafo et al. 1998, cited from earlier work

| Substance | Serum IFN-β AUC0-24 h ([1]; IM) | Serum IFN-β tmax ([1]; IM) | Serum neopterin AUC0-144 h ([2]; IM) | Serum neopterin Cmax ([2]; IM) | Serum neopterin tmax ([2]; IM) | Serum β2-microglobulin AUC0-24 h ([3]; IM) | Serum β2-microglobulin Cmax ([3]; IM) | Serum β2-microglobulin tmax ([3]; IM) | Serum IFN-β AUC0-24 h ([1]; SC) | Serum IFN-β tmax ([1]; SC) | Serum neopterin AUC0-144 h ([2]; SC) | Serum neopterin Cmax ([2]; SC) | Serum neopterin tmax ([2]; SC) | Serum β2-microglobulin AUC0-24 h ([3]; SC) | Serum β2-microglobulin Cmax ([3]; SC) | Serum β2-microglobulin tmax ([3]; SC) |
| --- | --- | --- | --- | --- | --- | --- | --- | --- | --- | --- | --- | --- | --- | --- | --- | --- |
| Avonex ®: interferon-β-1a (Avonex®, Biogen, Inc.) | 65 IU h/ml | 4 h | 2974 nmol·h/L | 36 nmol/L | 36 h | 270 mg·h/L | 2.3 mg/L | 36 h | – | – | – | – | – | – | – | – |
| Rebif ®: interferon-β-1a (Rebif®, Serono) | 70 IU h/ml | 3.5 h | 2930 nmol·h/L | 35 nmol/L | 36 h | 277 mg·h/L | 2.4 mg/L | 36 h | 65 IU h/ml | 3 h | 2700 nmol·h/L | 32 nmol/L | 36 h | 271 mg·h/L | 2.3 mg/L | 24 h |
